Assay results taken from US6071908A (priority 1995, dated 2000).
This is a selection: effects in other tests are not listed, and their absence says nothing.

Tests used:
[1] = Assay 1: radiolytic reduction of prodrug in formate buffer (or other solution), products analysed by HPLC; settings: prodrug 50 μM in sodium formate pH 7.0, anoxic, cobalt-60
[2] = test system: UV4 cells; test: Cytotoxicity against UV4 cells, 4 hr aerobic exposure; format: cell-based; settings: read-out: IC50, P (unirradiated prodrug); UV4, 4 hr aerobic exposure; mean ± SEM

## C[N+](CCCl)(CCCl)Cc1ccc([N+](=O)[O-])cc1
[1]
  G(+E), anoxic, Assay 1 (yield of effector): 0.20 μM/Gy
[2]
  IC50: 35 µM

## C[N+](CCCl)(CCCl)Cc1cccc([N+](=O)[O-])c1
[1]
  G(+E), anoxic, Assay 1 (yield of effector): 0.045 μM/Gy
